A549 tox: A549 cytotoxicity, counter-screen for Nrf2 inhibitors; A549 ARE-Fluc cells, CellTiter-Fluor viability, 18-24 h; Potency, µM (doses to about 46 µM), inactives show at the top dose activity change, negative = cytotoxicity, usual class: inhibitors; hit rate 0.16% among 390,000; AID 504648; note: potency is the fitted concentration of half-maximal effect; % is set by controls: 0 for no effect and ±100 for the full control effect
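Cytotoxicity counterscreen: CellTiter-Fluor fluorescence was measured in A549 ARE_Fluc cells after 18-24 h of compound exposure in a concentration series. The subsequent BugLite luminescent read reports ARE-luciferase activity.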
Nrf2 inh: Nrf2 pathway inhibition | hit rate 2.1% among 360,000 | Potency, µM (titrated, usually from 46 µM), for inactives: top-dose activity change, negative = inhibition, most hits filed as inhibitors | AID 504444 | A549 ARE-Fluc reporter, luciferase luminescence, 18-24 h; note: potency is the fitted concentration of half-maximal effect; % is set by controls: 0 for no effect and ±100 for the full control effect; nearly all actives have a fitted effect of over 60% in size
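Concentration-response testing used A549 ARE_Fluc cells at 5000 cells/well. Following an 18-24 h compound incubation, viability was read by fluorescence (Ex 405/Em 525) and luciferase output by luminescence.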
Nrf2 activator: activators of Nrf2 (ARE) signaling. AID 624171. Potency, µM (top dose mostly 46.1 µM), for inactives: at the highest dose activation, actives largely listed as activators. hit rate 0.31% among 410,000. AREc32 ARE-luciferase reporter (MCF7-derived line), luminescence, 24 h; note: potency is the fitted concentration of half-maximal effect; % of control where 0% means no effect; nearly all actives have a fitted effect of over 65% in size
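For detection, Steady-Glo was added and plates sat 30 min at RT; before that, AREc32_Fluc cells grown overnight in OPTI-MEM/5% FBS had been treated with 23 nL compound for 24 hr at 37 deg C.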
miR-21 reporter: raises the signal of a miR-21 reporter | HeLa miR-21 FLuc reporter, luciferase, 48 h | Potency, µM (doses to about 38.3 µM), without a hit: at the top dose reporter change, positive = more light | 340,000 tested, under 10 active | AID 2288; active = well fitted rising curve with a large enough effect; inconclusive = small, poorly fitted or top-dose-only effect; inactive = no such curve, though single readings can be large or run the other way;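 note: % of control where 0% means no effect; miR-21 action dims this reporter so a rising signal means less miR-21 action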
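HeLa cells stably expressing CMV-driven firefly luciferase with a downstream miR-21 binding sequence, endogenously expressing miR-21, were treated with titrations (up to about 40uM final) for 48 hours at 37 degree Celsius. Luciferase luminescence was read after lysis.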
ClpP mod: qHTS Assay for Activators of ClpP; AID 651965, 2013; purified B. subtilis ClpP, FRET peptide cleavage, 20 min; Potency, µM (highest dose often 57.5 µM), without a hit: top-dose activity change, negative = active; ATP-dependent Clp protease proteolytic subunit (Bacillus subtilis (strain 168)), P80244; hit rate 1.9% among 340,000; active = well fitted falling curve with a large enough effect; inconclusive = small, poorly fitted or top-dose-only effect; inactive = no such curve, though single readings can be large or run the other way; note: potency is the fitted concentration of half-maximal effect; the source files actives as falling curves though it sought activators and does not explain the sign; nearly all actives have a fitted effect of over 65% in size
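Purified B. subtilis ClpP, 10 microg/mL final in Tris/HCl pH8 with KCl, BSA, glycerol and Tween-20, cleaved an Abz/nitrotyrosine-quenched decapeptide. Fluorescence (ex 320, em 430) was read at 0 and 20 min at room temperature. Delta was normalized to 5.8 microM ADEP and DMSO/no-enzyme controls.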
IL-2 act: IL-2 activation. activation, % (series mostly up to about 46 µM). hit rate 0.065% among 360,000. AID 652025. IL-2 activation reporter assay, cell-based qHTS; stimulated with anti-CD3/CD4/CD28 beads; in transgenic mouse T cells; in the data active = activation above about 50%; inconclusive = mostly about 30% to 49%; note: 0% is about no effect
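Readout is EGFP and DsRed signal by fluorescent plate cytometry after 18 h at 37 degrees C. Transgenic mouse T cells (750/well) received compound for 60 min before bead stimulation (anti-CD3, anti-CD4, anti-CD28); memory T cells served as non-tolerant control.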
* marks the source's active call; other numbers are inactive results; u = inconclusive; x = not tested or not shown. Hits are enriched below; roughly 3.7% of the tested compounds scored in any of these assays. Unless noted, calls come from the whole dose curve; as a rule, active = well fitted curve in the direction sought with a large enough effect; inconclusive = small, poorly fitted or top-dose-only effect, or another doubt; inactive = no such curve, though single readings can be large; an effect the other way counts as inactive or inconclusive.

By UniProt entry, the sequences of proteins in these tests, tags left out.
ATP-dependent Clp protease proteolytic subunit (Bacillus subtilis (strain 168)), P80244, UniProt P80244, whole entry, looked up: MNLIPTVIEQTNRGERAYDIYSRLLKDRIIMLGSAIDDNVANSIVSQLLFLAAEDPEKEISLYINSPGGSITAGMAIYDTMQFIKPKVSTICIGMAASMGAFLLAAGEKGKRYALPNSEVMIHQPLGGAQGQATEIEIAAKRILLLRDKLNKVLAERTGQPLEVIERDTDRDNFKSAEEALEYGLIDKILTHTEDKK

cpd	mol	miR-21 reporter	IL-2 act	Nrf2 inh
1	Cc1ccccc1NC(=O)c1sc2nc(-c3ccncc3)ccc2c1N	27%	x	26µM*
2	COc1ccc(NC(=O)c2sc3nc(-c4cccnc4)ccc3c2N)cc1OC	-7%	94*	-19%
3	COc1ccccc1NC(=O)c1sc2nc(-c3ccco3)ccc2c1N	-28%	1	13%
4	COc1cccc(-c2ccc3c(N)c(C(=O)Nc4ccccc4C)sc3n2)c1	-20%	x	x
5	Nc1c(C(=O)Nc2ccccc2)sc2nc(-c3ccco3)ccc12	-21%	1	u
6	Cc1oc2ncn(CC(C)C)c(=O)c2c1C(=O)N1CCN(c2cccc(C(F)(F)F)c2)CC1	-5%	x	-7%
7	CCN(Cc1ccccc1)c1ccc(Br)cn1	x	x	23%
8	CC(C)(CC(=O)OCC(=O)Nc1ccc(F)c(Cl)c1)CC1=NS(=O)(=O)c2ccccc2N1	u	x	x
9	COc1ccc(-c2ccc3c(N)c(C(=O)NCc4ccc(C)cc4)sc3n2)cc1	1%	x	-6%
10	Cc1ccc(CNC(=O)c2sc3nc(-c4ccc(F)cc4)ccc3c2N)cc1	0%	x	-28%
11	N#Cc1ncc(-c2ccc3c(c2)OCCOCCOCCOCCOCCO3)nc1C#N	u	0	5%
12	COc1cc2c(NC3CCN(C)CC3)nc(N3CCCN(C)CC3)nc2cc1OCC1CCNCC1	x	x	x

cpd	A549 tox	Nrf2 activator	ClpP mod
1	-8%	-1%	1%
2	-4%	-1%	x
3	u	u	3%
4	u	0%	-11%
5	x	u	16µM*
6	0%	5%	0%
7	7%	x	x
8	-17%	4%	1%
9	3%	0%	11µM*
10	0%	0%	-17%
11	-9%	5%	32µM*
12	x	x	5%

Next part:
cpd	mol	miR-21 reporter	IL-2 act	Nrf2 inh
13	CC(C)COc1ccc(C(=O)Nc2cc3nn(-c4ccccc4)nc3cc2Cl)cc1	-7%	x	-6%
14	O=C(Nc1cc2nn(-c3ccccc3)nc2cc1Cl)c1ccco1	-32%	1	x
15	O=C(Nc1ccc2nn(-c3ccccc3)nc2c1)c1ccco1	-60%	-3	4%
16	O=C(Nc1ccc2nn(-c3ccccc3)nc2c1)c1cccnc1	-31%	2	x
17	CCc1ccccc1NC(=O)Cn1nnc2sc3c(c2c1=O)CCC(C(C)(C)C)C3 (centres undefined)	-1%	x	-14%
18	COc1ccc(N2CC(NC(=O)/C=C\c3ccc4c(c3)OCO4)CC2=O)cc1 (centres undefined)	11%	x	x
19	O=C(/C=C\c1ccc2c(c1)OCO2)NC1CC(=O)N(c2ccccc2)C1 (centres undefined)	23%	x	x
20	Cc1ccc(-n2nc(C(=O)Nc3ccc(Cl)cn3)c3c4ccccc4n(C)c3c2=O)cc1	0%	x	5%
21	O=C(CN1CCSc2ccccc21)N1CCN(c2cccc(Cl)c2)CC1	7%	x	x
22	CCOC(=O)Cn1c(=O)n(CC2CCCO2)c2nc(-c3ccccc3F)nc(C(N)=O)c21 (centres undefined)	4%	x	x
23	CC(Sc1nc(N)c2c3c(sc2n1)CSC(C)(C)C3)C(=O)Nc1ccccc1 (centres undefined)	10%	-1	18µM*
24	CCOc1ccccc1CNC(=O)c1cc2occc2n1C	-14%	-3	9%

cpd	A549 tox	Nrf2 activator	ClpP mod
13	-2%	1%	-14%
14	1%	1µM*	-17%
15	-12%	9%	32µM*
16	9%	3%	-3%
17	6%	0%	-5%
18	2%	3%	28µM*
19	12%	5%	4%
20	0%	-1%	-2%
21	-11%	1%	0%
22	-7%	0%	4%
23	u	4%	-6%
24	0%	5%	-2%

Next entries:
cpd	mol	miR-21 reporter	IL-2 act	Nrf2 inh
25	CCOc1ccccc1CNC(=O)c1cc2oc3ccccc3c2n1C	19%	-3	u
26	Cc1ccc(Cn2cc3c(n2)-c2c(oc(C(=O)Nc4ccc(F)cc4F)c2C)CC3)cc1	-6%	x	-7%
27	COc1ccc(C2(OC)Oc3cc(OC)ccc3C(=O)C2(O)OC)cc1 (centres undefined)	x	-4	6%
28	COc1ccc2c(c1)OC(c1ccccc1)(C(F)(F)F)NC2=O (centres undefined)	0%	-1	3%
29	Cc1c(Cl)cccc1NC(=S)N1CCN(C(=O)C2CCCO2)CC1 (centres undefined)	-7%	0	13%
30	O=C(Nc1ccc(Cl)cc1)N1CCN(C(=O)C2CCCO2)CC1 (centres undefined)	-2%	2	-13%
31	O=C(Nc1cc(Cl)cc(Cl)c1)N1CCN(C(=O)C2CCCO2)CC1 (centres undefined)	-5%	-1	16µM*
32	Cc1ccc(NC(=O)c2ncoc2-c2ccco2)cc1Cl	-35%	x	x
33	COc1ccccc1CN(Cc1cc2cc3c(cc2[nH]c1=O)OCCO3)Cc1nnnn1Cc1ccco1	-17%	2	18%
34	O=c1[nH]c2cc3c(cc2cc1CN(Cc1cccnc1)Cc1nnnn1Cc1ccco1)OCCO3	-9%	-1	x
35	O=c1[nH]c2cc3c(cc2cc1CN(Cc1ccccc1)Cc1nnnn1Cc1ccco1)OCCO3	-50%	5	-22%
36	Cc1ccc(-c2nc(CNC(=O)Nc3ccccc3)c(C)o2)cc1	-1%	x	x

cpd	A549 tox	Nrf2 activator	ClpP mod
25	1%	-1%	20µM*
26	-3%	0%	2%
27	-8%	6%	32µM*
28	-1%	0%	0%
29	13%	0%	28µM*
30	-1%	-1%	1%
31	6%	1%	-1%
32	17%	u	39%
33	13%	9%	28µM*
34	-2%	0%	14µM*
35	-7%	3%	-16%
36	0%	3%	-29%

An excerpt from above in order of SMILES length, ascending:
cpd	mol	miR-21 reporter	IL-2 act	Nrf2 inh
27	COc1ccc(C2(OC)Oc3cc(OC)ccc3C(=O)C2(O)OC)cc1 (centres undefined)	x	-4	6%
31	O=C(Nc1cc(Cl)cc(Cl)c1)N1CCN(C(=O)C2CCCO2)CC1 (centres undefined)	-5%	-1	16µM*
33	COc1ccccc1CN(Cc1cc2cc3c(cc2[nH]c1=O)OCCO3)Cc1nnnn1Cc1ccco1	-17%	2	18%

cpd	A549 tox	Nrf2 activator	ClpP mod
27	-8%	6%	32µM*
31	6%	1%	-1%
33	13%	9%	28µM*

Profiles, quoted from the list. Screens in order: miR-21 reporter, IL-2 act, Nrf2 inh, A549 tox, Nrf2 activator, ClpP mod
Record of Cc1ccc(Cn2cc3c(n2)-c2c(oc(C(=O)Nc4ccc(F)cc4F)c2C)CC3)cc1 : -6%, x, -7%, -3%, 0%, 2%
Record of O=C(Nc1cc(Cl)cc(Cl)c1)N1CCN(C(=O)C2CCCO2)CC1 (centres undefined) : -5%, -1, 16µM*, 6%, 1%, -1%
Record of COc1ccc(C2(OC)Oc3cc(OC)ccc3C(=O)C2(O)OC)cc1 (centres undefined) : x, -4, 6%, -8%, 6%, 32µM*

(further entries)
cpd	mol	miR-21 reporter	IL-2 act	Nrf2 inh
37	CCOc1ccc(CNCc2c(C(=O)O)c(C)n(Cc3c(F)cccc3Cl)c2C)cc1OC	-15%	x	-1%
38	CCOC(=O)c1ccc(NC(=O)c2c(C)oc3nc(C)nc(N4CCCC4)c23)cc1	2%	x	24%
39	CCOC(=O)CCCSc1nnc(CCCCCN2C(=O)c3cccc4cccc(c34)C2=O)o1	-3%	0	u
40	CCOC(=O)CSc1nnc(CCCCCN2C(=O)c3cccc4cccc(c34)C2=O)o1	-2%	0	6%
41	O=C(Nc1nc(-c2ccc(Cl)cc2)cs1)c1cccnc1	-7%	0	u
42	CCc1ccc(-c2csc(NC(=O)C3=NN(c4ccccc4)C(=O)CC3)n2)cc1	-12%	-1	18µM*
43	CCc1ccc(-c2csc(NC(=O)c3cccnc3)n2)cc1	1%	-2	15µM*

cpd	A549 tox	Nrf2 activator	ClpP mod
37	0%	3%	0%
38	-4%	-1%	4%
39	0%	3%	28µM*
40	0%	0%	3%
41	-1%	0%	-1%
42	-3%	4%	-7%
43	-9%	4%	4%
